The source of these data is paper PMC9604325, “Internalized Amyloid-β (1-42) Peptide Inhibits the Store-Operated Calcium Entry in HT-22 Cells” (International Journal of Molecular Sciences, 2022).

By Kd is commonly meant the equilibrium constant for the complex coming apart.

For assay [1], the target named is Calmodulin (UniProt P0DP23). The settings on record: cited from earlier work.
In assay [2] the target is Calmodulin (CaM), endogenous in HT-22 cells (mouse (endogenous in HT-22)) (UniProt P0DP26). Nature of the assay: FRET or BRET; FRET imaging of fixed and permeabilized HT-22 cells stained with rabbit anti-CaM and anti-rabbit IgG-Alexa488 (donor), then 50 or 100 nM Aβ(1-42)*555 (acceptor) for 15 min at RT in PBS; ratio of red/green fluorescence per pixel.

On to Amyloid-β (from UniProt P05067), for which the Kd in assay [1] was 1 nM. Consider “Human Aβ(1-42)-HiLyte™-Fluor555 (from UniProt P05067 672-713) (peptide; HiLyte Fluor555 label (position not stated); other documents disagree on this pair)”, for which, in assay [2], the fold increase in the red/green fluorescence intensity ratio (FRET) at 50 nM Aβ(1-42)*555 came out at 3.4 fold and the fold increase in the red/green fluorescence intensity ratio (FRET) at 100 nM Aβ(1-42)*555 was 6.9 fold.
